Laboratory results published in patent publication US6194423A, “Fused isoquinolines as dopamine receptor ligands” (priority 1999, dated 2001).

System: D1 receptors
Assay: Adenylate cyclase activity (cAMP accumulation) in rat striatal homogenates
Assay type: biochemical
Method: Adenylate cyclase activity in rat striatum. The automated HPLC method of Schulz and Mailman was used to measure adenylate cyclase activity by separating cAMP from other labeled nucleotides. […] Triplicate determinations were performed for each drug concentration.
The reaction proceeded for 15 min at 30° C. and was terminated by the addition of 100 μL of 3% sodium dodecyl sulfate (SDS). […] Samples were centrifuged (10,000×g for 8-9 min), and the supernatants injected on an HPLC system (Waters Z-module or RCM 8×10 module equipped with a C18, 10 micron cartridge). […] The radioactivity in each fraction was determined by a flow-through radiation detector (Inus Systems, Tampa, Fla.) using Cerenkov counting. Sample recovery was based on UV measurement of total unlabeled CAMP peak areas quantified using PE Nelson (Cupertino, Calif.) Model 900 data collection modules and TurboChrom software.
Data analysis for adenylate cyclase studies. Data for each sample were expressed initially as pmol/mg/min cAMP. Baseline values of cAMP were subtracted from the total amount of cAMP produced in each drug condition. Data for each drug were expressed relative to the stimulation produced by 100 μM DA.

## CN1CCc2cc(Cl)c(O)cc2[C@@H](c2ccccc2)C1 [SCH23390, reference compound]
  blockade of agonist-stimulated cAMP synthesis: These effects were blocked
